{"source": "patent US20180087023A1", "about": "“METHOD OF PRODUCING BIOPRODUCTS” (White Dog Labs, Inc., priority 2015, published 2018)", "key": {"[1]": {"settings": "25° C.; cited from earlier work"}, "[2]": {"assay": "Single-stage extraction of 2% aqueous bioproduct solutions with extractant (Examples 1-9)", "assay_type": "physicochemical", "procedure": "Extraction of various bioproducts with an extractant composed of 80% 1-butene and 20% dimethylether (DME) 100 grams (g) of aqueous solutions of various bioproducts were prepared. Bioproduct initial concentration was 2%. Each of these bioproduct aqueous solutions was extracted in a pressure vessel by mixing with 100 g of extractant composed of 80% 1-butene (the hydrocarbon) and 20% dimethylether (the oxygenated compound) at ambient temperature. The amount of formed extract and formed raffinate and the concentration (conc.) of the bioproduct in each were determined. Theses concentrations were used to calculate the bioproduct distribution coefficient (DC). Also determined was the concentration of DME in the raffinate. Table 2 compares the found distribution coefficients to those of extracting with an extractant composed of 100% DME."}, "[3]": {"settings": "25° C."}, "[4]": {"assay": "Effect of DME/1-butene ratio in the extractant on n-butanol extraction (Example 10)", "assay_type": "physicochemical", "settings": "1:1 w/w, room temperature; for DC: 2% n-butanol in water; for Butanol extraction yield: single stage", "procedure": "Extractant to aqueous solution weight/weight ratio was 1 to 1. Distribution coefficients, extractant concentration in the raffinate and extraction yield (single stage extraction at the selected extractant/aqueous solution weight/weight ratio) were determined and are summarized in Table 3."}, "[5]": {"settings": "extractant 20% DME + 80% 1-butene"}, "[6]": {"settings": "extractant 40% DME + 60% 1-butene"}, "[7]": {"settings": "extractant 60% DME + 40% 1-butene"}, "[8]": {"settings": "extractant 80% DME + 20% 1-butene"}}, "data": [{"substance": "n-butanol", "values": [{"measurement": "n-butanol content of saturated aqueous solution", "setting": "[1]", "result": "about 7.3 wt %"}, {"measurement": "Raffinate Bioproduct conc. (%)", "setting": "[2]; 100 g of 2% aqueous solution mixed with 100 g extractant of 80% 1-butene + 20% DME, ambient temperature, raffinate phase", "result": 0.77, "unit": "%"}, {"measurement": "Extract Bioproduct conc. (%)", "setting": "[2]; 100 g of 2% aqueous solution mixed with 100 g extractant of 80% 1-butene + 20% DME, pressure vessel, ambient temperature, extract phase", "result": 1.27, "unit": "%"}, {"measurement": "DC (bioproduct distribution coefficient)", "setting": "[2]; extract/raffinate, extractant 80% 1-butene + 20% DME, ambient temperature (Table 1)", "result": 1.63}, {"measurement": "Distribution coefficient, 20% DME + 80% 1-Butene", "setting": "[2]; extractant 20% DME + 80% 1-butene (Table 2)", "result": 1.63}, {"measurement": "Distribution coefficient, 100% DME", "setting": "[2]; extractant 100% DME (Table 2)", "result": 2.92}, {"measurement": "n-butanol/water weight ratio in saturated aqueous solution", "setting": "[3]", "result": "about 0.079"}, {"measurement": "DC", "setting": "[4]; [5]", "result": 1.66}, {"measurement": "DC", "setting": "[4]; [6]", "result": 2.22}, {"measurement": "DC", "setting": "[4]; [7]", "result": 2.71}, {"measurement": "DC", "setting": "[4]; [8]", "result": 3.02}, {"measurement": "DC", "setting": "[4]; extractant 100% DME", "result": 2.92}, {"measurement": "Butanol extraction yield", "setting": "[4]; [5]", "result": 58.81, "unit": "%"}, {"measurement": "Butanol extraction yield", "setting": "[4]; [6]", "result": 63.49, "unit": "%"}, {"measurement": "Butanol extraction yield", "setting": "[4]; [7]", "result": 65.47, "unit": "%"}, {"measurement": "Butanol extraction yield", "setting": "[4]; [8]", "result": 64.68, "unit": "%"}, {"measurement": "Butanol extraction yield", "setting": "[4]; extractant 100% DME", "result": 57.98, "unit": "%"}]}]}
